# Earlier results as cited in patent US5532240A, “Condensed thiophene compound and pharmaceutical use thereof” (Yoshitomi Pharmaceutical Industries, Ltd., priority 1991, dated 1996).
# Test system: 5-HT2
# Details: cited from earlier work
smiles,measurement,value
Cc1nc2n(c(=O)c1CCN1CCC(c3noc4cc(F)ccc34)CC1)CCCC2 [Risperidone],5-HT2 receptor antagonistic properties,extremely potent
